The text below walks through data of patent US20220332813A1.

Sequences of proteins named here, by UniProt entry; tags and fusion partners are left off. Residues count along the entry.
UniProt Q07954, 20-4544 limits assumed: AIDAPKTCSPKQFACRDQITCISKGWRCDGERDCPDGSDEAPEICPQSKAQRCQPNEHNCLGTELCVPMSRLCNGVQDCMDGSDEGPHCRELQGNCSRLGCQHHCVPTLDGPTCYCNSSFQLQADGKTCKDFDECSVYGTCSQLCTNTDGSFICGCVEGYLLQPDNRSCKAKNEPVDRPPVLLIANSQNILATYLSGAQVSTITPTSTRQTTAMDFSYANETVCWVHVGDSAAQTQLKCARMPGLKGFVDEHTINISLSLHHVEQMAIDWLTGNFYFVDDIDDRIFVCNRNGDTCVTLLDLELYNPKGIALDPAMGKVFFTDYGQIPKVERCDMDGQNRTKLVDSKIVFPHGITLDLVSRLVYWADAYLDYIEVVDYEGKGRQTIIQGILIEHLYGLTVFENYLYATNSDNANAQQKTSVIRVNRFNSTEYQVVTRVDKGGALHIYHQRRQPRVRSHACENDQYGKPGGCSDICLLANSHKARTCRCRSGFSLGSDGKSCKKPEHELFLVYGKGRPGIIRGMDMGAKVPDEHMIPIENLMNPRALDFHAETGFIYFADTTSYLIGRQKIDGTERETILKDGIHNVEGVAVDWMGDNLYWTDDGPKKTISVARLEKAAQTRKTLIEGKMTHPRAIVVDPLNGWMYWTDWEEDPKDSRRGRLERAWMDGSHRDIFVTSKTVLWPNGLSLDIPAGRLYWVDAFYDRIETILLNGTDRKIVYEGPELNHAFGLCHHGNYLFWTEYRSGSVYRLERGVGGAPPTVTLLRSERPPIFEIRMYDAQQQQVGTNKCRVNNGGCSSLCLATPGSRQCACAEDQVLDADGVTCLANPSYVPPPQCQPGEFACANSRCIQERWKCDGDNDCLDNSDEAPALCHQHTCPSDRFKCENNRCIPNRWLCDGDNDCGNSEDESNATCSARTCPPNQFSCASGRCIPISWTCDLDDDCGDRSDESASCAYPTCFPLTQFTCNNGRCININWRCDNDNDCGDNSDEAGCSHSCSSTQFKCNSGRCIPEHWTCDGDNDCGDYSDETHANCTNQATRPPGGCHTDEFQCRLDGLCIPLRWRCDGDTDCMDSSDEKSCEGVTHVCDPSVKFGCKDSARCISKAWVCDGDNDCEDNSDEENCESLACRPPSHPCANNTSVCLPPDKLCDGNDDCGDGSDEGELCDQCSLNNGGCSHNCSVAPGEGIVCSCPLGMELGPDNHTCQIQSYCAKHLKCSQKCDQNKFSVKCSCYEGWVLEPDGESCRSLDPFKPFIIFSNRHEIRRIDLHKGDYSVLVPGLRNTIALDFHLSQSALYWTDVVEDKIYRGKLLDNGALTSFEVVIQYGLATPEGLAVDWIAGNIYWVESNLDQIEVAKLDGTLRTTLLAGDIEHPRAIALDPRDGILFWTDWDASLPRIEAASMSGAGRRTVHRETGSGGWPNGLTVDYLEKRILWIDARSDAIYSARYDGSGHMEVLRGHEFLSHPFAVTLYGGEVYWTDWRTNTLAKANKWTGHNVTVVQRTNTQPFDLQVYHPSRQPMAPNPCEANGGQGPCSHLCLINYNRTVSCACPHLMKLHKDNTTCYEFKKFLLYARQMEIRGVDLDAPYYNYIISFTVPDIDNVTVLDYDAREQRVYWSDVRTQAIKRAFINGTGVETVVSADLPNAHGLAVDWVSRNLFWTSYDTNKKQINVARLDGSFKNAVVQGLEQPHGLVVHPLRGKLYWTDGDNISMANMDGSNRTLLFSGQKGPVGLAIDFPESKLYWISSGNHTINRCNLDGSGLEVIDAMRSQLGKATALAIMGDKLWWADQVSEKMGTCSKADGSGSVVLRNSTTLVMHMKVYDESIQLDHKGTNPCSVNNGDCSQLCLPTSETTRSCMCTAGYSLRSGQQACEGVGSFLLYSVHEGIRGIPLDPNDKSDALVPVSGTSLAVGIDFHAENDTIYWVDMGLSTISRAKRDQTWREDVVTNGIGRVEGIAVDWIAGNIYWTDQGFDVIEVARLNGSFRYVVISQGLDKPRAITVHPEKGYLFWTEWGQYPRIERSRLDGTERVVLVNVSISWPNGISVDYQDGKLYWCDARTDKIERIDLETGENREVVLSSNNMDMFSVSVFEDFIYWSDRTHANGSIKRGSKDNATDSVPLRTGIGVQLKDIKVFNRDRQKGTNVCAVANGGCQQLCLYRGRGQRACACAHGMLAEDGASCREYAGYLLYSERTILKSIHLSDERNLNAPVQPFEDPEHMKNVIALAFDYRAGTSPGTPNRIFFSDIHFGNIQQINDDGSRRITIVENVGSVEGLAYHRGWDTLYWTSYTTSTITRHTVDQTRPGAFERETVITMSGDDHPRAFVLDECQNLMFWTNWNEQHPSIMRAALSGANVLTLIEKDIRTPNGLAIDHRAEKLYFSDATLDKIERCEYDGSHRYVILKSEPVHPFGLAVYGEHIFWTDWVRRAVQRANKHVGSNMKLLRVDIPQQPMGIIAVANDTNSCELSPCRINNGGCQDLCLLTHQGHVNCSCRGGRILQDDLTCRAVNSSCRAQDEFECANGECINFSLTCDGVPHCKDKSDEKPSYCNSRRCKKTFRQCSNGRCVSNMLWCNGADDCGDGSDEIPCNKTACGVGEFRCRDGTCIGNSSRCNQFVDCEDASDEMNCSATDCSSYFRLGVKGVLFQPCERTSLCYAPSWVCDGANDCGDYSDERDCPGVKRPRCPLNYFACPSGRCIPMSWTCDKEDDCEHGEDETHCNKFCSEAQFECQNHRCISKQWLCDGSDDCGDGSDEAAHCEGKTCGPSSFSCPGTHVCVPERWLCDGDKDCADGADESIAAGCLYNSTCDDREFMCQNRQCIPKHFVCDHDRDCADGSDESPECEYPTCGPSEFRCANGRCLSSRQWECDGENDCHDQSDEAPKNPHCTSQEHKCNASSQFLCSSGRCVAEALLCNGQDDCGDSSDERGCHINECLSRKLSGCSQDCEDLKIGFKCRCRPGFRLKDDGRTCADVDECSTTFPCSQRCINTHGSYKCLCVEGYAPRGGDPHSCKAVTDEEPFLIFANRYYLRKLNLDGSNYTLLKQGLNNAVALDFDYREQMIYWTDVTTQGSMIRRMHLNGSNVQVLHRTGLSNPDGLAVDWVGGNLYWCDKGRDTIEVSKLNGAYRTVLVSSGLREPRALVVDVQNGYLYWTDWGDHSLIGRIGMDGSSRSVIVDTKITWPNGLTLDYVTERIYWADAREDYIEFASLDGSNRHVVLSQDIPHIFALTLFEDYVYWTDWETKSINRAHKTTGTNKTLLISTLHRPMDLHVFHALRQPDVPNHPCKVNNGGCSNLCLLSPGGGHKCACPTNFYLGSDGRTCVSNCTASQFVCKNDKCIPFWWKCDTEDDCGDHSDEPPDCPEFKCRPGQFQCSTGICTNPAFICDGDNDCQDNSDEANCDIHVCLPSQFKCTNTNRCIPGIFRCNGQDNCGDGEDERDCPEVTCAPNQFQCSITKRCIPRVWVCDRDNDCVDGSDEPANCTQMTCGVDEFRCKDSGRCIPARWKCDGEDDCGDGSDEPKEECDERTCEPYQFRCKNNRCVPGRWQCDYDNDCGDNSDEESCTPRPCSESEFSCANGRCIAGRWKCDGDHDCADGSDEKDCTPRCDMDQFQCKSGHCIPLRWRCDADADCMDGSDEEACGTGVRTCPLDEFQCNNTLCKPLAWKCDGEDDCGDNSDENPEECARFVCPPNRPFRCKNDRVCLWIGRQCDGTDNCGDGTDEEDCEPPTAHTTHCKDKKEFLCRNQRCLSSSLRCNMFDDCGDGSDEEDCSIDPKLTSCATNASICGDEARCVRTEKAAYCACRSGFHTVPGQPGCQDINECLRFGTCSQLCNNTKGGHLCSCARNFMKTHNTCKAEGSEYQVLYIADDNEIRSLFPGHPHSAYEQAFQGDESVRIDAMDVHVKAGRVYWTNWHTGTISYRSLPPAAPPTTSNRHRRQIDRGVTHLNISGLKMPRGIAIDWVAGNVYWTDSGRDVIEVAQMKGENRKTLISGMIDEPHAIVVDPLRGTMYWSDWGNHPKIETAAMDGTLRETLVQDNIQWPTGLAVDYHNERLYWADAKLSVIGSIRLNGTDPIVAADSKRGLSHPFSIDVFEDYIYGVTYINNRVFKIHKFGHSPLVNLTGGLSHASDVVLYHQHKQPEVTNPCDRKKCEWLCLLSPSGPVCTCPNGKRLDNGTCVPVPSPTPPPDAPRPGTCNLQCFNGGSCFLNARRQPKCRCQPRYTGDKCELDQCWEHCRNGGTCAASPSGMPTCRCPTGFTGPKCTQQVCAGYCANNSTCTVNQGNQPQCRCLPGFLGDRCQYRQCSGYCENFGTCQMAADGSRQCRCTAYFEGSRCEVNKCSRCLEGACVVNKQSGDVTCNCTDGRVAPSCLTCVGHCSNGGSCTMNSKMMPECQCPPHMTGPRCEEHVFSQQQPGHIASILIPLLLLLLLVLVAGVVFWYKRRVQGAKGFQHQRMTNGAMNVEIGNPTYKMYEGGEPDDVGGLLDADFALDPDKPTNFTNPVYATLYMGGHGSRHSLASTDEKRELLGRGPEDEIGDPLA
UniProt Q07954, 805-1184 limits assumed: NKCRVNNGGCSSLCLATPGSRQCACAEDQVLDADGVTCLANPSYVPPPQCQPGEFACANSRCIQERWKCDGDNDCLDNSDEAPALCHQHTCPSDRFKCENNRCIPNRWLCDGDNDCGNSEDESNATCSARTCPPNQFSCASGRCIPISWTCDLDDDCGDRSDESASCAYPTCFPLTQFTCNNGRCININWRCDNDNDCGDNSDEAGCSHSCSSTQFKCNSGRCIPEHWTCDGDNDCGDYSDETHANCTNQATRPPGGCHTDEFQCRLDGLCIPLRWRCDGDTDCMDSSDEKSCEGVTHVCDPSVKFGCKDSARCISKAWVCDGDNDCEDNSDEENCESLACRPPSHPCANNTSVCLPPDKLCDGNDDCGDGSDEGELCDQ
UniProt Q07954, 3293-3783 limits assumed: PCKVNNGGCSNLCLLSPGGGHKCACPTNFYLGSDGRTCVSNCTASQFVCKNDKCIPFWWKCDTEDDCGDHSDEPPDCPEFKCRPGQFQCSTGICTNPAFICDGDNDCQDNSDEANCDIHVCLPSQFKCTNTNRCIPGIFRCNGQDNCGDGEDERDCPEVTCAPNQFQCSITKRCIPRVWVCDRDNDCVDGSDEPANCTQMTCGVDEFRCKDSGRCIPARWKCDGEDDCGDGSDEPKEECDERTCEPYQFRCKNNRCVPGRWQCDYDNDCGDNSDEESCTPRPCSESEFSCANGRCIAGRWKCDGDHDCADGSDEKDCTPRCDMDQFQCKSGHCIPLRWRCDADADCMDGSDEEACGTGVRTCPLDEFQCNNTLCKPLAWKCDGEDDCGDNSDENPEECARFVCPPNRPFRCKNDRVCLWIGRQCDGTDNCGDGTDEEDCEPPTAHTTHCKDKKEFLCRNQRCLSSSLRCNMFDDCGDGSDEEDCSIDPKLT
UniProt Q07954, 2481-2942 limits assumed: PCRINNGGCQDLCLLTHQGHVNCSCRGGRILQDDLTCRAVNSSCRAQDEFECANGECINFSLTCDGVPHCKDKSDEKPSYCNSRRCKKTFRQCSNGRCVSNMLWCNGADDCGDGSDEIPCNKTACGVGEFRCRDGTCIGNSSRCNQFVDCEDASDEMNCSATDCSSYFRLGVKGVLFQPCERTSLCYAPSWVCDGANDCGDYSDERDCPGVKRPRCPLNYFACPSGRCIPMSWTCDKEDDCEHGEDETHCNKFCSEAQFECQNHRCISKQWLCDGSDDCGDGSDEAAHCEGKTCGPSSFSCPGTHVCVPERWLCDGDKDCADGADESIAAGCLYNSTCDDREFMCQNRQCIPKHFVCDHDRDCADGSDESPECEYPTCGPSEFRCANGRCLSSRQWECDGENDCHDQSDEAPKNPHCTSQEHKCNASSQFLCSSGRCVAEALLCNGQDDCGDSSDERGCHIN

For assay [1], the target named is full-length human LRP1 (purified) (human) (UniProt Q07954). Put plainly: SPR, LRP1 immobilised, equilibrium fit of Req.
The target of assay [2] is LRP1 cluster II (Homo sapiens (Human)) (UniProt Q07954). In words: SPR, LRP1 cluster II immobilised, single cycle.
The target of assay [3] is LRP1 cluster IV (Homo sapiens (Human)) (UniProt Q07954). In words: SPR, LRP1 cluster IV immobilised, single cycle.
Assay [4] deals with LRP1 cluster III (Homo sapiens (Human)) (UniProt Q07954). In words: SPR, LRP1 cluster III immobilised, single cycle.
The target in assay [5] is full-length human LRP1 (purified) (human) (UniProt Q07954). Put plainly: SPR, full-length LRP1 immobilised.

On to “human recombinant tau (2N4R) (from UniProt P10636 1-441) (ligand)”, for which the Kd came to 60 nM in assay [1], 69 nM in assay [2], 81 nM in assay [3] and 52 nM in assay [4].

“hyperphosphorylated 2N4R tau produced by Sf9 cells (from UniProt P10636 1-441) (ligand; hyperphosphorylated (produced in Sf9 insect cells, intermediate phosphorylation state); sites not stated)” gave an equilibrium dissociation constant (Kd) in assay [5] of 243 nM.
